Data published in patent US20120129892A1, “NOVEL PHARMACEUTICALLY ACCEPTABLE SALTS OF 4-(1H-IMIDAZOL-4-[…])PYRIDINE AND THEIR THERAPEUTICAL USES” (BIOPROJET, priority 2009, published 2012).

Sequences of proteins named here, by UniProt entry; tags and fusion partners are left off. A change or cut given only in a name is not applied to a line headed by its entry.
UniProt P58406: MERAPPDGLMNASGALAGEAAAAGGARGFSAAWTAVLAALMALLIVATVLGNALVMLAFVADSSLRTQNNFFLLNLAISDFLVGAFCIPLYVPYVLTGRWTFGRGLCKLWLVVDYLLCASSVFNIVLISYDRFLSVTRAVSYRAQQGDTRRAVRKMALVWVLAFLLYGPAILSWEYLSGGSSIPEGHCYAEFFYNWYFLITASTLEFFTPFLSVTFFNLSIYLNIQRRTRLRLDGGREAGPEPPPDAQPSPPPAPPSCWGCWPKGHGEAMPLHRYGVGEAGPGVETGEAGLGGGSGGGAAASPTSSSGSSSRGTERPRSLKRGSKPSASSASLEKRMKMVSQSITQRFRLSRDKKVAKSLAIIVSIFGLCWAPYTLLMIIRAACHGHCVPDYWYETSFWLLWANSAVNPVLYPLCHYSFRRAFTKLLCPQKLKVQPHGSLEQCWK

Target: H3R in brain (Mus musculus, UniProt P58406)
Conditions: mice, oral; immethridine base and salts at 0.3 mg/kg; imetit: maximal reduction

N=C(N)SCCc1cnc[nH]1 [imetit, reference compound]
t-methylhistamine brain level variation vs. control, mean (%): −35.9%
